cAMP accumulation in HEK293 cells stably expressing GLP-1R, dose-response (EC50) data for 1 substance are collected here from paper PMC11365140 (Cell & Bioscience, 2024).

Protein sequences, listed by entry. Tags and fused reporters are not part of them. Residues count along the entry.
UniProt P43220, 24-463: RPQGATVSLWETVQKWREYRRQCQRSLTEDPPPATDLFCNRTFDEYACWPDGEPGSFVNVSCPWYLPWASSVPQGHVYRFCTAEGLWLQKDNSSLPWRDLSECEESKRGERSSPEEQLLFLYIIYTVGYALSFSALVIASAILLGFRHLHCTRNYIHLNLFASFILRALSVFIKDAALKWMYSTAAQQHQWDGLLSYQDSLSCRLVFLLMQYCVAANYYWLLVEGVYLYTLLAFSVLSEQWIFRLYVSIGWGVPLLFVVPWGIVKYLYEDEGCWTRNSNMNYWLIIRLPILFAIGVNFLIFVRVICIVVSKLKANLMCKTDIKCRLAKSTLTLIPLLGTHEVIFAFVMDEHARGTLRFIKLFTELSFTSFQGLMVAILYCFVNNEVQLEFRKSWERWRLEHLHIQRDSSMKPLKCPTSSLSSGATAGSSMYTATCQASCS

The assay addresses GLP-1R (GLP-1 receptor) stably expressed in HEK293 cells (UniProt P43220).

glucagon (ligand) showed a cAMP accumulation in HEK293 cells stably expressing GLP-1R, dose-response (EC50) of 1.35 nM.
